The values below are quoted from earlier work in US20080015265A1, “Methods of treating obesity using satiety factors” (priority 2006, published 2008).

The conditions of this data set: animals.

Take “calcitonin-gene related peptide (ACDTATCVTHRLAGLLSRSGGVVKNNFVPTNVGSKAF; Calcitonin gene-related peptide 1; UniProt P06881 83-119, looked up)”: the food intake entry is given as “decrease food intake”.
